# Data as given in ChEMBL document CHEMBL1128530, “Alpha- and beta-adrenoceptors: from the gene to the clinic. 1. Molecular biology and adrenoceptor subclassification” (J Med Chem, 1995).
# Amino acid sequences for entries named in this document (tags omitted). A change or cut given only in a name is not applied to a line headed by its entry.
# UniProt P35368, whole entry: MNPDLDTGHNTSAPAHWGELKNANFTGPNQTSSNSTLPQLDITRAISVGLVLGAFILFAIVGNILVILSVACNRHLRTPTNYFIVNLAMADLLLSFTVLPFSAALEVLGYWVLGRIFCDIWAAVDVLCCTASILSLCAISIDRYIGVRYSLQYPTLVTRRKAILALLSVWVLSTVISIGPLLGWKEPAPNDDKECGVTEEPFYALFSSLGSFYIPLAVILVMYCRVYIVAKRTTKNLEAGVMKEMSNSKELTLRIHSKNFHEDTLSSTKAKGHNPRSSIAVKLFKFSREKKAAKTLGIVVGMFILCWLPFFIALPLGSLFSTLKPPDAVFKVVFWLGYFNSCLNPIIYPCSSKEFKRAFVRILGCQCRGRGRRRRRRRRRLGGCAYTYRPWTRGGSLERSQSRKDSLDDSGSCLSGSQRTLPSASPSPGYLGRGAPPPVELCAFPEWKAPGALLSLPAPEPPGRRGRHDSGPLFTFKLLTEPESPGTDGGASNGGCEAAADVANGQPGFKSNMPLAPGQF
# UniProt P30545: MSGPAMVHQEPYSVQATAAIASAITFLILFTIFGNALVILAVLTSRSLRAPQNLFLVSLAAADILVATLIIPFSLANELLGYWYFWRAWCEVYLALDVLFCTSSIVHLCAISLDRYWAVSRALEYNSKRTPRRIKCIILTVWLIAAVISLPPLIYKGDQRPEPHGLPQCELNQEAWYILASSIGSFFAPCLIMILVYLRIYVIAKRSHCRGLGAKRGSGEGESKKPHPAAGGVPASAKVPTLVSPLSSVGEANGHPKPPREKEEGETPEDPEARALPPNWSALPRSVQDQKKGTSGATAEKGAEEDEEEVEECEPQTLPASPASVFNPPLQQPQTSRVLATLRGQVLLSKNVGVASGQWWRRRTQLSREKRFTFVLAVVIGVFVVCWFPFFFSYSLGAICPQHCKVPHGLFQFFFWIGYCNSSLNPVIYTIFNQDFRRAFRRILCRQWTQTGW
# UniProt Q01338: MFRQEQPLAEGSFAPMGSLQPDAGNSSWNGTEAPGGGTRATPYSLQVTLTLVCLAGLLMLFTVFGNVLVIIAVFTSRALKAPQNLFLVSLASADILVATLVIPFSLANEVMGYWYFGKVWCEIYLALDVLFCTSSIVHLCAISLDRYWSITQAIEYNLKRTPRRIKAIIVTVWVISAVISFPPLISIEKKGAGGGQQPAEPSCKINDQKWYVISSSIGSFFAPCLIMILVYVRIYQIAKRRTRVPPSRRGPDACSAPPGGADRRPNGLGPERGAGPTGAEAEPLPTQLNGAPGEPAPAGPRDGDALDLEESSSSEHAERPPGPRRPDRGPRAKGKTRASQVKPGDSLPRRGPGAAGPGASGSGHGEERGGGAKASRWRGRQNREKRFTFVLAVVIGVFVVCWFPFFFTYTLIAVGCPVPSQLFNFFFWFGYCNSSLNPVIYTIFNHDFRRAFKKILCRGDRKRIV
# UniProt Q01337: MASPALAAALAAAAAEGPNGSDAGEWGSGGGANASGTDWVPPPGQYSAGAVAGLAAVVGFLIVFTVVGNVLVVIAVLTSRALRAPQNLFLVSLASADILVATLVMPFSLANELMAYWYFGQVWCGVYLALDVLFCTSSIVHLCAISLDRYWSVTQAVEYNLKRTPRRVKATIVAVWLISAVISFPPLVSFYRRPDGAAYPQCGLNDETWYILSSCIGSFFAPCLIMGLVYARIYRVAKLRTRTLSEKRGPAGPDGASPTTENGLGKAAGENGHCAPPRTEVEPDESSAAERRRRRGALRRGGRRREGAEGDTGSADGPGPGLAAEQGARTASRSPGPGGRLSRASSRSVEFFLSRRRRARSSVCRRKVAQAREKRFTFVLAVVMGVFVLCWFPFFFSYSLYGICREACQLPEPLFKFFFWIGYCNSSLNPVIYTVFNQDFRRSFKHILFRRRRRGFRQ
# Columns and labels:
# [1] = target: Alpha-1B adrenergic receptor (Homo sapiens, UniProt P35368); experiment: Binding affinity against Alpha-1B adrenergic receptor from human clone
# [2] = target: T1, Alpha-2 adrenergic receptor (Mus musculus, UniProt P30545+Q01338+Q01337); experiment: Compound was evaluated for inhibition of binding of [3H]-MK-91 to Alpha-2 adrenergic receptor in Malpha-2 4H; format: protein assay
# [3] = target: T1, Alpha-2 adrenergic receptor; experiment: Compound was evaluated for inhibition of binding of [3H]MK-91 to Alpha-2 adrenergic receptor in M alpha-10H (mouse); format: protein assay
SMILES,Ki [1] [nM],Ki [2] [nM],Ki [3] [nM]
COc1cc2nc(N3CCN(C(=O)C4COc5ccccc5O4)CC3)nc(N)c2cc1OC (stereo not drawn) [DOXAZOSIN],0.74,,
COc1cc2nc(N3CCN(C(=O)c4ccco4)CC3)nc(N)c2cc1OC [PRAZOSIN],,97,2150
